The subject of this data set is Clone 9 human liver cells. Briefly: Effect on liver cell (intracellular glutathione). As to conditions: compound 10 μg/ml, 24 hours. Here is the method:
Clone 9 human liver cells (8×10^6 cells) (manufactured by Dainippon Pharmaceutical Co., Ltd.) were inoculated in a petri dish (manufactured by Nunc) with a diameter of 6 cm, and the cells were cultured in DMEM containing 10% deactivated FBS for 3 days at 37° C. in the presence of 5% carbon dioxide gas. When the cells were 80% confluent, the medium was exchanged with DMEM containing 0.5% FBS. After the cells were naturalized for 24 hours, the culture medium was removed by suction and exchanged with fresh DMEM containing 0.5% FBS, and the test substances were dissolved in ethanol. […] 24 hours after the addition, the cells were collected, and glutathione measurements were performed by the method described in Example 5.

Regarding `OCCc1ccc(O[C@@H]2O[C@H](CO)[C@@H](O)[C@H](O)[C@H]2O)c(O)c1` [DPE-4′-O-β-D-Glucopyranocide, 2-(3,4-dihydroxyphenyl)ethanol-4′-O-β-D-glucopyranocide], the “Effect on hepatocyte (glutathione), ratio to control” value is on record as 1.19.
With `OC[C@H]1O[C@@H](OCCc2ccc(O)c(O)c2)[C@H](O)[C@@H](O)[C@@H]1O` [DPE-1-O-β-D-Glucopyranocide, 2-(3,4-dihydroxyphenyl)ethanol-1-O-β-D-glucopyranocide] the figure was 1.13.

Source of the values: US7740831B2, “Compositions for potentiating glutathione” (Fancl Corporation, priority 2001, dated 2010).
